Measured values reported in PubChem BioAssay AID923 (National Center for Advancing Translational Sciences (NCATS), 2007).
Only a part is listed here, and it is no random draw. Active and inactive are the calls of the source. Calls come from the whole dose curve; as a rule, active = well fitted activation curve with a large enough effect; inconclusive = small, poorly fitted or top-dose-only effect; inactive = flat fitted curve, though single readings scatter.

Assay: qHTS Assay for Allosteric/Competitive Inhibitors of Caspase-1: Spectroscopic Profiling in AFC Spectral Region; note: 0% is about no effect
Details: compound fluorescence, AFC spectral region (405/520 nm); at 57.5 µM (top of the series) unless noted

**Q.** Which fluorescence increase does the source give for NC(=O)Nc1ccc([As](=O)(O)O)cc1 here?
**A.** inactive: -1.56% [at 25.7 µM]

**Q.** With CN(C(=O)Cc1ccc(Cl)c(Cl)c1)[C@H]1CCCC[C@@H]1N1CCCC1 as the compound, how does the fluorescence increase read?
**A.** inactive: -1.67%
